Assay results from ChEMBL document CHEMBL1146149, “The development of 2-benzimidazole substituted pyrimidine based inhibitors of lymphocyte specific kinase (Lck)” (Bioorg Med Chem Lett, 2006).

Sequences of proteins named here, by UniProt entry; tags and fusion partners are left off. A change or cut given only in a name is not applied to a line headed by its entry.
UniProt P08631: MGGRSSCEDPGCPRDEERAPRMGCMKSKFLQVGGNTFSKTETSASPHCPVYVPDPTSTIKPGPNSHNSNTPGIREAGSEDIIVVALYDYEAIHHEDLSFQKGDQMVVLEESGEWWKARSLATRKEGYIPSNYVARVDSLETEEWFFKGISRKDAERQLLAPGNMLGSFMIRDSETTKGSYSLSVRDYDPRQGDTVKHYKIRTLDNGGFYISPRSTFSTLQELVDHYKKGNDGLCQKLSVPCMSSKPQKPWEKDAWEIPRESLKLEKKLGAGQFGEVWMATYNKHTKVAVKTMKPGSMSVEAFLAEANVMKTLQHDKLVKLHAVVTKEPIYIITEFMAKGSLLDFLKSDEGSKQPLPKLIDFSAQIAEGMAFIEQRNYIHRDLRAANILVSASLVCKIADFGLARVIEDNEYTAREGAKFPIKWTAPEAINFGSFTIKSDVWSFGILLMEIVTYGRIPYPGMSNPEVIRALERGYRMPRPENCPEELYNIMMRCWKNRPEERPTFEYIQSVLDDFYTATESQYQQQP

Target: Tyrosine-protein kinase HCK (Homo sapiens, UniProt P08631)
Experiment: Inhibition of human recombinant Hck by ProFlour assay

Work on `CCN(CC)CCNc1cc(Nc2cc(O)ccc2C)nc(-n2cnc3ccccc32)n1` yielded an IC50 of 46 nM.
